System: PBMC of healthy adult blood donors from Colombo, Sri Lanka
Experiment: Ex vivo IFNγ ELISPOT, HLA-matched PBMC of Sri Lankan blood donors
Assay type: cell-based, human
Conditions: ex vivo IFNγ ELISPOT
[1] = donors expressing HLA B*3501 (supertype B7)
[2] = donors expressing HLA A*0201 (supertype A2)

CSCC[C@H](NC(=O)[C@@H]1CCCN1C(=O)[C@@H](NC(=O)[C@@H](NC(=O)[C@H](Cc1ccccc1)NC(=O)[C@@H](NC(=O)[C@@H](NC(=O)[C@H](C)NC(=O)[C@@H](N)C(C)C)[C@@H](C)O)[C@@H](C)O)C(C)C)[C@@H](C)O)C(=O)O
T cell response [SFC] [1]: 268 SFC

CC[C@H](C)[C@H](NC(=O)CNC(=O)[C@H](CCC(=O)O)NC(=O)CNC(=O)[C@H](CCC(=O)O)NC(=O)[C@H](CCSC)NC(=O)[C@H](CCC(N)=O)NC(=O)[C@@H](N)CCCNC(=N)N)C(=O)N[C@@H](Cc1ccccc1)C(=O)O
T cell response [SFC] (donors expressing B*1501): 583 SFC

CC[C@H](C)[C@H](NC(=O)[C@@H]1CCCN1C(=O)[C@@H](N)CC(=O)O)C(=O)N1CCC[C@H]1C(=O)N[C@@H](Cc1ccc(O)cc1)C(=O)N[C@@H](CC(=O)O)C(=O)N1CCC[C@H]1C(=O)N[C@@H](CCCCN)C(=O)N[C@@H](Cc1ccccc1)C(=O)O
T cell response [SFC] [1]: 77 SFC

CC[C@H](C)[C@H](NC(=O)[C@H](C)NC(=O)[C@H](CC(C)C)NC(=O)[C@H](CS)NC(=O)[C@H](CC(C)C)NC(=O)[C@@H](NC(=O)CNC(=O)[C@H](CCSC)NC(=O)[C@@H](NC(=O)[C@@H](N)Cc1ccccc1)[C@@H](C)O)C(C)C)C(=O)O
T cell response [SFC] [2]: 33 SFC

CC[C@H](C)[C@H](NC(=O)[C@H](CC(C)C)NC(=O)[C@H](C)NC(=O)[C@H](CC(C)C)NC(=O)[C@H](CC(C)C)NC(=O)[C@H](CCSC)NC(=O)[C@@H](N)CC(C)C)C(=O)N[C@@H](C)C(=O)N[C@H](C(=O)N[C@@H](CC(C)C)C(=O)O)C(C)C
T cell response [SFC] [2]: 63 SFC

CC[C@H](C)[C@H](NC(=O)[C@@H](NC(=O)[C@H](CC(=O)O)NC(=O)[C@H](CCSC)NC(=O)[C@@H](NC(=O)[C@H](C)NC(=O)CNC(=O)[C@H](CCCCN)NC(=O)[C@@H]1CCCN1C(=O)[C@@H](N)[C@@H](C)O)C(C)C)[C@@H](C)CC)C(=O)O
T cell response [SFC] (donors expressing B*0702): 422 SFC

CC[C@H](C)[C@H](NC(=O)[C@H](CC(=O)O)NC(=O)[C@H](CCCCN)NC(=O)[C@H](CCCNC(=N)N)NC(=O)[C@@H](NC(=O)[C@@H](N)CCCCN)C(C)C)C(=O)N[C@@H](CCC(N)=O)C(=O)N[C@@H](CCC(N)=O)C(=O)N[C@@H](Cc1c[nH]c2ccccc12)C(=O)O
T cell response [SFC] (donors expressing B*5701): 115 SFC

CSCC[C@H](NC(=O)[C@H](CCC(N)=O)NC(=O)[C@@H](N)CCCNC(=N)N)C(=O)N[C@@H](CCC(=O)O)C(=O)NCC(=O)N[C@@H](CCC(=O)O)C(=O)NCC(=O)N[C@H](C(=O)N[C@@H](CC(C)C)C(=O)O)C(C)C
T cell response [SFC] (donors expressing B*1501): 382 SFC

CC[C@H](C)[C@H](N)C(=O)N1CCC[C@H]1C(=O)N[C@@H](CCSC)C(=O)N[C@@H](C)C(=O)N[C@H](C(=O)N[C@@H](Cc1ccc(O)cc1)C(=O)NCC(=O)N[C@@H](Cc1c[nH]c2ccccc12)C(=O)N[C@@H](CC(N)=O)C(=O)N[C@@H](CC(C)C)C(=O)O)[C@@H](C)O
T cell response [SFC] (donors expressing HLA B*0702 (supertype B7)): 450 SFC

CSCC[C@H](NC(=O)CNC(=O)[C@H](CC(C)C)NC(=O)[C@H](CC(=O)O)NC(=O)[C@H](CCCNC(=N)N)NC(=O)[C@H](CCCCN)NC(=O)[C@@H](NC(=O)[C@@H](N)[C@@H](C)O)[C@@H](C)O)C(=O)N[C@@H](CO)C(=O)N[C@@H](CCCCN)C(=O)O
T cell response [SFC] (donors expressing HLA A*1101 (supertype A3)): 75 SFC

CSCC[C@H](NC(=O)[C@H](C)NC(=O)CNC(=O)[C@H](CCC(=O)O)NC(=O)[C@@H](N)CCC(N)=O)C(=O)N[C@@H](Cc1c[nH]cn1)C(=O)N[C@@H](CO)C(=O)N[C@@H](C)C(=O)N[C@@H](CC(C)C)C(=O)O [QEGAMHSAL]
T cell response [SFC] (donors expressing HLA B*4001 (supertype B44)): 22 SFC

CC[C@H](C)[C@H](N)C(=O)N[C@@H](CS)C(=O)N[C@@H](CO)C(=O)N[C@@H](C)C(=O)N[C@H](C(=O)N1CCC[C@H]1C(=O)N[C@H](C(=O)N[C@@H](Cc1c[nH]cn1)C(=O)N[C@@H](Cc1c[nH]c2ccccc12)C(=O)O)C(C)C)C(C)C
T cell response [SFC] (donors expressing B*5801): 305 SFC

CSCC[C@H](NC(=O)[C@@H](NC(=O)[C@H](CCSC)NC(=O)[C@H](CO)NC(=O)[C@@H]1CCCN1C(=O)[C@@H](NC(=O)[C@@H](NC(=O)[C@H](CC(C)C)NC(=O)[C@@H](N)CCSC)C(C)C)[C@@H](C)O)[C@@H](C)O)C(=O)O
T cell response [SFC] [1]: 115 SFC
